Tests used:
[1] = molecular target: MUC17 on LS174T colorectal cancer cells (human, UniProt Q685J3 26-4493); experiment: flow cytometry on LS174T cells, chimeric antibody titrated
人MUC17-Fc蛋白 = molecular target: T1, 人MUC17-Fc蛋白 (human, UniProt Q685J3 4131-4390); experiment: ELISA, coated MUC17 antigen, chimeric antibody titrated
T1 construct: range 4131-4390; No linker is described; also called MUC17抗原; not shown: C-terminal Fc tag

Binder	EC50 [1] [nM]	EC50 (人MUC17-Fc蛋白) [nM]	Top (人MUC17-Fc蛋白) [OD450]
ch-8H2 (antibody, V domains shown) VH: EVNLVESGGGLVKPGGSLKLSCAASGFAFSNYDMSWVRQTPEKRLEWVATISGGGSYTYYPDNVKGRFTISRDNAMNTLYLQMSSLRSEDTALYYCASVNWGFPYWGQGTLVTVSA VL: DIVMSQSPSSLAVSIGEKVTMSCKSSQSLLYSRNQKNYLAWYQQKPGQSPILLIYWTSTRESGVPDRFTGSGSGTDFTLTISGVKAEDLAVYYCQQYYTSPWTFGGGTRLEIKR	1.76	0.116	2.53
ch-42H4 (antibody, V domains shown) VH: QVQLQQSGAELVKPGASAKLSCKASGYTFNSNYIYWVKQRPGQGLEWIGEIKPTNGVTNFNEKFKTKATLTVDKSSSTAYMQLTSLTSEDSAVYYCTRGFSLLRLQGYAMDDWGQGTSVTVSS VL: not shown	10.3	2650	7.58
ch-15D10 (antibody, V domains shown) VH: QVQLQQPGAELVKPGASVKMSCKASGYTFTTYWMHWVKQRSGQGLEWIGVIDPSDSYTRYNQKFKDKATLTVDTSSSTAYMHLTSLTSEDSAVYYCTRSGIGNSFIMDYWGQGTSVTVSS VL: QVVLTQSPAIMPAFPGEKVTISCSASSSVIYMFWYQQKPGSSPKPWIYRTSNLASGVPARFTGSGSGTSYSLTISSMEAEDAATYYCQQYHSYPLTFGVGTKLELKR		0.117	2.46
ch-45D1 (antibody, V domains shown) VH: EMQLVESGGDLVKPGGSLKLSCAVSGFTFSTYDMSWIRQTPDKRLEWVATISSGGSYTYYPDSVKGRFTISRDNAKNTLYLQMSSLQSEDTAIYYCASLNWGFDHWGQGTTLTVSS VL: not shown		0.123	2.52
ch-51E12 (antibody, V domains shown) VH: QVQLQQSGPELVKPGASVKISCKVSGNAFSLSWMNWVKQRPGQGLEWIGRIYPGDGDSNYNGKFKGKATLTADKSSSTVFMQLSSLTSVDSAVYFCANYYGSSSWFVYWGQGTLVTVSA VL: DVVMTQTPLSLPVSLGDQASISCRSSQSLVHSYGNTYLHWYLQKPGQSPKLLIYKVSNRFSGVPDRFSGSGSGTDFTLKISRVETEDLGVYFCSQSTHFPWTFGGGTKLEIKR		0.218	2.31

— patent CN116284408A (SUNSHINE GUOJIAN PHARMACEUTICAL SHANGHAI CO LTD, dated 2023)
